Apparent affinities of Ab-14 variants for a coronavirus HR2 peptide

Data: MIT Lincoln Laboratory AlphaSeq set, Li et al. 2023, doi:10.1038/s41467-023-39022-2, as distributed in FLAb.

The target is the same throughout: PDVDLGDISGINAS, from the HR2 region of SARS-CoV-2 spike.

Ab-14 is the parent antibody, in scFv form: VH, then the linker GGGGSGGGGSGGGGS, then VL. The light chain is unchanged in all variants.
VH: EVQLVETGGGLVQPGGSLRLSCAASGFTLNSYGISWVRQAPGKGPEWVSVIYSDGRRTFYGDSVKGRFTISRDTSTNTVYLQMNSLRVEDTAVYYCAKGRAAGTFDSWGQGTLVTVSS
VL: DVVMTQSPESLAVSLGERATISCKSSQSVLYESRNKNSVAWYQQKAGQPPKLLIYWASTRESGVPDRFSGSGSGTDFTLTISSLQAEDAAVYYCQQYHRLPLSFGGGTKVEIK

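The parent was found by panning a naive human phage display library on the peptide. These sequences belong to a second round, designed from the earlier measurements on random variants of the parent. Group labels follow the data file (Ctrl: baseline library sampled from a position-specific scoring matrix, with some repeated check sequences; GPLM: also part of the Gaussian process libraries; HC: hill climbing; Gen: genetic algorithm; a sequence that several methods proposed may carry one label only). The scFvs were displayed on barcoded MATa yeast, the peptide on MATalpha yeast. Mating (16 h, 30 °C) was followed by selection of diploids and sequencing of their barcodes. A regression on co-assayed BCL2-family reference pairs converts the normalised counts of each replicate to an apparent Kd. Mating was done six times.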

Variants are written as CDR1, CDR2 and CDR3 of the heavy chain (limits as in the source). Parent: GFTLNSYGIS, VIYSDGRRTFYGDSVK, GRAAGTFDS.
Numbers give log10(Kd / nM), so 0 is 1 nM and 3 is 1 µM. Smaller is tighter.
Where no diploid with the target was found in that replicate, the entry reads "ND": below detection, most likely a poor binder, though not proof of it.
The parent sequence was in this pool as ten entries: three were never detected, three once, and four in most replicates, with averages from 0.34 to 2.37.
Background: pairings of all heavy chain designs with three empty control strains gave a value in 1% of cases (median 2.08, 5th percentile 0.84). Values in that range, when seen in few replicates, are hard to tell from nonspecific mating. For each scFv, signals with the empty controls are counted beside the result, with their mean in brackets.
A sequence measured in both rounds can read differently, since the two assays cover different ranges.
In the paper, a design with two or fewer of six values counts as a poor binder.
A sequence that the file lists under several names has all its replicates listed entry by entry, parted by semicolons.

| # | CDR-H1 | CDR-H2 | CDR-H3 | group | log10 Kd, replicates | empty controls |
|---|---|---|---|---|---|---|
| 1 | GFNLLSYGYS | VIYSDGRRTFYGDSVK | NRAAGTFLS | Ctrl | ND ND ND ND ND ND | 0/18 |
| 2 | GFTINTYGIS | VIYADGRRTFYGDSVK | GQAAGTFDS | Ctrl | 0.30 0.30 0.12 -0.02 -0.11 0.56 | 0/18 |
| 3 | GFVLNSYGIS | VIYADGRRTFYGDSVK | GRAAGTFDL | Ctrl | 2.73 ND ND 2.12 3.29 2.96 | 3/18 (3.15) |
| 4 | GFTLNSYGIS | VIYSDGRRTFYGDSFK | GRAAGTFDS | Ctrl | ND 3.77 1.66 3.10 2.66 ND | 0/18 |
| 5 | GFTLQSYGIS | VIYSDGFRTFYGDSVK | GRAAGTFDS | Ctrl | ND ND 2.01 ND 1.93 ND | 0/18 |
| 6 | GFTLNDYGIS | VIYADGRRTFYSDSVK | GQAAGTFDS | Ctrl | 0.27 -0.33 0.03 -1.25 -0.80 -0.87 | 0/18 |
| 7 | GFTLNSYGVS | VIYSDGRRCFYGDSVK | GRAAGTFDS | Ctrl | ND ND ND ND ND ND | 0/18 |
| 8 | GFTLNEYGIS | VIYSDGRRTFYGDSVK | GRAAGTFVS | Ctrl+GPLM_HC | ND ND ND ND ND ND; 1.79 ND ND ND 2.22 ND | 0/36 |
| 9 | GFTLNSYGIS | VIYADGRRTFYGDSVK | GRAAGTADS | Ctrl | ND ND ND ND ND ND | 0/18 |
| 10 | GFTLESYGIS | VIYSDGRRTFYEGSVK | GRAATTFDS | Ctrl | ND ND ND ND ND ND | 0/18 |
| 11 | TFTMNSYGIS | VIDSDGRRTFYGDSVK | GRAAVTFDS | Ctrl | ND ND ND ND ND ND | 0/18 |
| 12 | GFDLNNYGIS | VIYSDGRRTFYGDSVE | GVAAGTFSL | Ctrl | ND ND ND 0.44 ND ND | 0/18 |
| 13 | GNTLLSYGIS | VIYSDGMRVFYGDSVK | GQAIGTFDS | Ctrl | ND ND ND ND ND ND | 0/18 |
| 14 | GFTLNSYGIS | VIYSDGKRLAYGGSVK | GRAAGTFVG | Ctrl | ND ND ND ND ND ND | 0/18 |
| 15 | GFTLNMYGIS | VIYSDGRRTFYGDSVK | GAAAGTFKS | Ctrl | ND ND ND ND ND ND | 0/18 |
| 16 | GFSLNSYGIS | VIYSDGYRTFYGDSVK | GREAGTFDS | Ctrl | 1.23 0.56 0.41 0.33 0.39 0.49 | 1/18 (2.66) |
| 17 | GFALNSYGIS | VIYSDGRRTFYEDSVK | GEAAGTFVV | Ctrl | ND 1.57 ND ND ND ND | 0/18 |
| 18 | GFTLNEYGIS | VIYSDGRRTAYGDSVK | GRQAGTFDS | Ctrl | -0.08 0.35 -0.29 -0.45 -0.87 -0.37 | 0/18 |
| 19 | GFELNSYGIS | VIYSDGRRTFYGDSVK | GRVAGTFDC | Ctrl | ND ND ND ND ND ND | 0/18 |
| 20 | GFTLDSYGIS | VIYADGRRTFYSDSVK | GRQAGTFDS | Ctrl | 0.09 0.09 -0.16 -0.13 0.51 0.26 | 0/18 |
| 21 | GETLNSYSIS | VIYSDGRRTFYEDSVK | GNAAGTFDS | Ctrl | ND ND ND ND ND ND | 1/18 (4.24) |
| 22 | GFRLNSYGIS | VIYSDGRRTFYKDSVK | GRAAGTFES | Ctrl | 1.61 1.26 2.28 1.83 1.84 1.71 | 0/18 |
| 23 | GTKLSSYGYS | VIYSDGRRTFYGDSVK | GRVRGCFPS | Ctrl | ND ND ND ND ND ND | 0/18 |
| 24 | GFSLNSYGIS | VIYSDGRRTFYIDSVK | GRLAGEFDS | Ctrl | ND ND ND ND ND ND | 0/18 |
| 25 | GFTLKSYGIS | VIYSDGRRTFYGDSVK | GQAAGTFDS | Ctrl | ND ND ND 1.97 ND ND | 0/18 |
| 26 | GFTLNEYGIS | VIYSDGRRTFYGDSVK | GKAAGTFDS | Ctrl+GPLM_Gen | 0.47 0.37 0.21 -0.21 -0.06 0.05; 1.20 1.12 1.67 0.95 0.88 1.03 | 1/36 (1.88) |
| 27 | GFTLNQYGIS | VIYSDGRRTFYGDSVK | GRAAITFDS | Ctrl | ND ND ND ND ND ND | 0/18 |
| 28 | GFNLNSYGIS | VIYSDGRRNFYGDSVK | GRAAGVGDS | Ctrl | ND ND ND ND ND ND | 0/18 |
| 29 | GFNLDSYGIS | VIYSDGCRTFYGDSVK | CRAAGTFDS | Ctrl | ND ND ND ND ND ND | 0/18 |
| 30 | GFTLNSYGIS | VIYADGRRTFYGDSVK | GRAAGTFNS | Ctrl | ND 0.62 ND 1.90 0.82 ND | 0/18 |
| 31 | GFTLNSKGIS | VIYSDGRRTFYGDSVK | GRAAGTFDS | Ctrl | 0.51 0.37 0.70 0.76 -0.02 0.67 | 0/18 |
| 32 | GFTRESYGRS | VIYSDGRRTFYGDSVK | GRAALTLDS | Ctrl | ND ND ND ND ND ND | 0/18 |
| 33 | GEELNEYGIS | VIYRDGRRTFYGDSVK | GRAAGTFDS | Ctrl | ND ND ND ND ND ND | 1/18 (1.50) |
| 34 | GFTLNSYGGS | VIYADGRRTFYHDSVK | GRYAGTFDD | Ctrl | ND ND ND ND ND ND | 1/18 (1.31) |
| 35 | GFTLNSYGIS | VIYSDGRRTFYGDSVK | GRAIGTFDS | Ctrl | ND ND ND ND ND ND | 0/18 |
| 36 | GFTLDSYGIS | VIYSDGYRTFYGDSVK | WDAAGTFDI | Ctrl | ND ND ND ND ND ND | 0/18 |
| 37 | GQTLNSYGIS | VIYSDGRRTFYGDSVK | GRNAGTFDS | Ctrl | ND ND ND ND ND ND | 1/18 (1.78) |
| 38 | GFTLNSYGIS | VIYSDGRRTFYGDNVK | GRAAGTFDT | Ctrl | ND 1.05 1.81 ND ND 2.70 | 0/18 |
| 39 | GFTLNSYGIS | VIYSDGYRTFYGDSVK | GNAAGTFDS | Ctrl | ND 1.62 2.43 2.07 2.88 2.18 | 1/18 (1.95) |
| 40 | QFTLNSYGIS | VIYADGIRTFYGDSVK | GRASATFDS | Ctrl | ND ND ND ND ND ND | 0/18 |
| 41 | GFHLNSYGIS | VIYSDGRRTFYGDSVR | GRAAGTFDS | Ctrl | 3.45 2.31 1.93 ND 1.96 3.01 | 0/18 |
| 42 | GYTLNSYGIS | VIYSDGRRTFYGDSVK | GRASGTFDS | Ctrl | ND ND ND ND ND ND | 2/18 (2.30) |
| 43 | GFTLDSYGIS | VIYSDGRRTIYGDSVK | GTAAGTFDS | Ctrl | ND ND ND ND ND ND | 0/18 |

5 of these entries, quoted again:

{"CDR-H1": "GETLNSYSIS", "CDR-H2": "VIYSDGRRTFYEDSVK", "CDR-H3": "GNAAGTFDS", "group": "Ctrl", "log10 Kd, replicates": "ND ND ND ND ND ND", "empty controls": "1/18 (4.24)"}
{"CDR-H1": "GFTLNSYGIS", "CDR-H2": "VIYSDGRRTFYGDSVK", "CDR-H3": "GRAIGTFDS", "group": "Ctrl", "log10 Kd, replicates": "ND ND ND ND ND ND", "empty controls": "0/18"}
{"CDR-H1": "GFALNSYGIS", "CDR-H2": "VIYSDGRRTFYEDSVK", "CDR-H3": "GEAAGTFVV", "group": "Ctrl", "log10 Kd, replicates": "ND 1.57 ND ND ND ND", "empty controls": "0/18"}
{"CDR-H1": "GFTLDSYGIS", "CDR-H2": "VIYADGRRTFYSDSVK", "CDR-H3": "GRQAGTFDS", "group": "Ctrl", "log10 Kd, replicates": "0.09 0.09 -0.16 -0.13 0.51 0.26", "empty controls": "0/18"}
{"CDR-H1": "GFTLESYGIS", "CDR-H2": "VIYSDGRRTFYEGSVK", "CDR-H3": "GRAATTFDS", "group": "Ctrl", "log10 Kd, replicates": "ND ND ND ND ND ND", "empty controls": "0/18"}